Experimental data taken from ChEMBL document CHEMBL1614632, “Trend analysis of a database of intravenous pharmacokinetic parameters in humans for 670 drug compounds” (Drug Metab Dispos, 2008).

Key:
[1] = clinical
[2] = clinical; remark: listed apart in the source
[3] = clinical; details: human, in vivo, iv, t1/2
[4] = clinical; remark: listed apart in the source
[5] = clinical; remark: listed apart in the source

Nc1ccn([C@H]2CC[C@@H](CO)O2)c(=O)n1 [ZALCITABINE]
clearance [1]: 5.6 mL/min/kg | MRT [2]: 1.6 h | half-life [3]: 72 min | Vd [4]: 0.54 L/kg

O=C(c1ccccc1)c1ccc2n1CCC2C(=O)O (stereo unspecified) [KETOROLAC]
MRT [2]: 5.2 h | half-life [3]: 306 min

C[N+]1(CC2CC2)CC[C@]23c4c5ccc(O)c4O[C@H]2C(=O)CC[C@@]3(O)[C@H]1C5 (stereo partly specified) [METHYLNALTREXONE]
clearance [1]: 22 mL/min/kg | half-life [3]: 150 min | Vd [4]: 2.6 L/kg

CC[C@H]1OC(=O)[C@H](C)[C@@H](O[C@H]2C[C@@](C)(OC)[C@@H](O)[C@H](C)O2)[C@H](C)[C@@H](O[C@@H]2O[C@H](C)C[C@H](N(C)C)[C@H]2O)[C@](C)(O)C[C@@H](C)C(=O)[C@H](C)[C@@H](O)[C@]1(C)O [ERYTHROMYCIN]
half-life [3]: 120 min

CCCc1nc(C)c2c(=O)[nH]c(-c3cc(S(=O)(=O)N4CCN(CC)CC4)ccc3OCC)nn12
MRT [2]: 3.8 h | half-life [3]: 270 min

CC=CC1=C(C(=O)O)N2C(=O)[C@@H](NC(=O)[C@H](N)c3ccc(O)cc3)[C@H]2SC1 [CEFPROZIL]
fraction unbound [5]: 0.59

Nc1ncn([C@@H]2O[C@H](CO)[C@@H](O)[C@H]2O)c(=O)n1 [AZACITIDINE]
clearance [1]: 35 mL/min/kg | MRT [2]: 0.22 h | half-life [3]: 21.6 min | Vd [4]: 0.47 L/kg

OC(CCN1CCCCC1)(c1ccccc1)C1CC2C=CC1C2 (stereo unspecified) [BIPERIDEN]
MRT [2]: 17 h | half-life [3]: 1440 min | Vd [4]: 12 L/kg

COc1ccc([C@@H]2Sc3ccccc3N(CCN(C)C)C(=O)[C@@H]2OC(C)=O)cc1 [DILTIAZEM]
clearance [1]: 13 mL/min/kg | half-life [3]: 336 min

NCCCC[C@H](N[C@@H](CCc1ccccc1)C(=O)O)C(=O)N1CCC[C@H]1C(=O)O [LISINOPRIL ANHYDROUS]
MRT [2]: 12 h | half-life [3]: 2520 min | Vd [4]: 0.89 L/kg

CN1CCC[C@@H]1Cc1c[nH]c2ccc(CCS(=O)(=O)c3ccccc3)cc12
clearance [1]: 5.3 mL/min/kg | half-life [3]: 252 min | Vd [4]: 1.6 L/kg

CC(C)NCC(O)c1ccc(NS(C)(=O)=O)cc1 (stereo unspecified) [SOTALOL]
MRT [2]: 11 h | half-life [3]: 378 min | Vd [4]: 1.3 L/kg
